These results are taken from patent publication US9919057B2, “Compounds comprising self-immolative group” (LegoChem Biosciences, Inc., priority 2014, dated 2018).

Like-named read-outs stand apart in the source and are kept apart here.

Data set [1] deals with SK-Br3 (HER2 positive) breast cancer cell line. The experiment in a line: Anti-proliferation assay of ADC (SRB). The format is cell-based, human. The settings on record: 72 hours. As to the method:
Anti-cell proliferation activities of antibodies, a drug, and ADC(s) illustrated in the following Table 2 on cancer cell lines were measured.
As the cancer cell lines, commercialized human breast cancer cell lines MCF-7 (HER2-negative or -normal) and SK-Br3 (HER2 positive), and a commercialized ovarian cancer cell lines SK-OV3 (HER2 positive) were used. As the drug, MMAF was used.
After each of the cancer cell lines was seeded in a 96-well plate at 10,000 cells/each well and cultured for 24 hours, the antibody and ADC were treated at a concentration of 0.01563˜2 μg/ml (2 times serial dilution), and the drug was treated at a concentration of 4˜500 nM (2 times serial dilution). After 72 hours, the numbers of living cells were quantified using a Sulforhodamine B (SRB) dye.

Data set [2] relates to human breast carcinoma cell line BT-474. The format is in vivo. As to the method: Efficacy of a drug depending on single-dose or multi-dose administration was evaluated using an orthotopic model.
A human breast carcinoma cell line BT-474 was purchased from Korea Cell Line Bank and cultured using RPMI 1640 (10% FBS, 1% penicillin/streptomycin) in an incubator (37° C., 5% CO2) in which a constant temperature and humidity was maintained. As experimental animals, Balb/c-nu female mice (6 weeks old) purchased from Japan SLC were used, and after acclimation period of 1 week, 17b-estradiol pellet (1.72 mg/pellet, Innovative Research of America, Sarasota, Fla.) was subcutaneously administered. After 6 days, BT474 cell (5×10^6 cells in 100 μL) was suitably mixed with 50% PBS/50% phenol red-free Matrigel (Becton Dickinson Bioscience) and injected into the second mammary fat pad, thereby making orthotopic models. A tumor size was measured twice per a week, and a volume was calculated by ½ [length (mm)]×[width (mm)]^2. The mice were grouped so as to have an average tumor volume of 100 mm^3 in each group after 3 weeks from cell injection, and then used in the experiment.
Animal groups were the same as those in the multi-dose administration model, a total of 4 BT474 orthotopic mice were used per group, the drugs were administered once at an initiation point in time of the experiment through the tail vein, and only observation was performed during an experiment period of 5 weeks without additional drug administration.

Data set [3] in a line: In vivo mouse PK profile (total antibody, ELISA). The arrangement: species or system ICR male mice. The note with it: iv single dose 2.5 mg/kg. A general note: In an ELISA, binding on a coated surface is turned into a signal by an enzyme label.
A further data set is described as follows: In vivo rat PK test. The arrangement: species or system female rats. The settings on record: iv single dose 3.0 mg/kg.
The conditions of data set [4]: monkey, in vivo, iv, 3 mg/kg.

With “Herceptin-G7-CVIM (HC): antibody: Herceptin with G7-CVIM motif at the heavy chain”, the “IC50 Breast Cancer Cell Line SK-Br3” value in data set [1] worked out at 1.53 µg/mL.
For the substance “Herceptin-G7-CVIM (LC): antibody: Herceptin with G7-CVIM motif at the light chain”, in data set [1], the “IC50 Breast Cancer Cell Line SK-Br3” value turned out to be 1.98 µg/mL.
Consider “Herceptin: trastuzumab (referred to as 'Herceptin'); Herceptin manufactured by Roche was purchased and used [reference compound]”, for which, in data set [2] (5 mg/kg QW), the “Body Weight Change Day 4” value was 22.1, the “Body Weight Change Day 7” value stood at 22.1, the “Body Weight Change Day 10” value came to 21.9 and the “Body Weight Change Day 14” value was found to be 21.1. For the same substance, the “Body Weight Change Day 21” value in data set [2] (5 mg/kg QW) was 22.5. In addition, in data set [2] (5 mg/kg once), the “tumor regrowth observed from, after a single-dose administration” value is given as 10 days. In data set [2] (5 mg/kg once, tail vein, experiment period of 5 weeks), the “tumor growth, single-dose administration” value is recorded as “tumor regrowth phenomenon was observed”. The “tumor growth, multi-dose administration” value in data set [2] (5 mg/kg, once a week, total of 4 times, tail vein) is recorded as “partially inhibited”. For the same substance, the “tumor growth (tumor volume)” value in data set [2] (5 mg/kg, once a week, total of three times, tail vein) is “partially inhibited”. In addition, the C0 in data set [3] was 39200 ng/mL. In “In vivo rat PK test”, the “Alpha HL” value was found to be 2.16 ± 0.50 days and the V1 came out at 0.03672 ± 0.00108 L/kg. In data set [4], this substance had a V1 of 0.03608 ± 0.00062 L/kg.
